Data on 24 compounds can be found in patent US9694016B2 (Novartis AG, priority 2013, dated 2017).

Chains of the proteins cited; added tags and fusions are not shown.
UniProt P04049, whole entry Y340E/Y341E: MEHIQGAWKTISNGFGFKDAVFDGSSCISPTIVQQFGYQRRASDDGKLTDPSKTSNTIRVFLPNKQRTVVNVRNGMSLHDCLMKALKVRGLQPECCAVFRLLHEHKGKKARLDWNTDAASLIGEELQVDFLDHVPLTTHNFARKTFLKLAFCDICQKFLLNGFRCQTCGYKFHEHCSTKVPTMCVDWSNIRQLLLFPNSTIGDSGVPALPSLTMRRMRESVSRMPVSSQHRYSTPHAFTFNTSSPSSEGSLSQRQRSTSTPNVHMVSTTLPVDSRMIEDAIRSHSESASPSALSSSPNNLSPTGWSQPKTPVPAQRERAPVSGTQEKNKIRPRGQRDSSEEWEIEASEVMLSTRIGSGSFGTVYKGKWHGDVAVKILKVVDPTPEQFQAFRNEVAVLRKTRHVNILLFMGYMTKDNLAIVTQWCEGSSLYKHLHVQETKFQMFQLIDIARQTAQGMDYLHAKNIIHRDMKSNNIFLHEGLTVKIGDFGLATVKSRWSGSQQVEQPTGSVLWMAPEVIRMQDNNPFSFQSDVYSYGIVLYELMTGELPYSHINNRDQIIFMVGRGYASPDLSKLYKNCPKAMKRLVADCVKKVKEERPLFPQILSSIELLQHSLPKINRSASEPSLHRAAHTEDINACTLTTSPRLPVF

Structures are written as SMILES.

The first experiment deals with C-Raf FL (full-length C-Raf protein, Y340E and Y341E activating mutations) (Homo sapiens (Human), UniProt P04049, Y340E/Y341E). It counts as biochemical. The conditions noted are these: AlphaScreen, 60 min pre-incubation, 1 hour reaction; read-out: c-Raf FL IC-50.
Regarding `Cc1ccc(NC(=O)c2ccnc(C(C)(C)C#N)c2)cc1-c1cc(N2CCOCC2)nc(N[C@@H](C)CO)n1` [Example 746], the IC50 is 1.2 nM.
On to `CCNc1nc(-c2cc(NC(=O)c3cccc(C(C)(F)F)c3)ccc2C)cc(N2CCOCC2)n1` [Example 701, 3-(1,1-difluoroethyl)-N-(3-(2-(ethylamino)-6-morpholinopyrimidin-4-yl)-4-methylphenyl)benzamide], for which the IC50 worked out at 0.3 nM.
Consider `CCOc1nnc(-c2cc(NC(=O)c3cccc(C(F)(F)F)c3)cnc2C)cc1N1CCOCC1` [Example 609, N-(5-(6-ethoxy-5-morpholinopyridazin-3-yl)-6-methylpyridin-3-yl)-3-(trifluoromethyl)benzamide], for which the IC50 came to 0.3 nM.
For the compound `CCOc1nnc(-c2cc(NC(=O)c3cc(C(F)(F)F)ccn3)cnc2C)cc1N1CCOCC1` [Example 611, N-(5-(6-ethoxy-5-morpholinopyridazin-3-yl)-6-methylpyridin-3-yl)-4-(trifluoromethyl)picolinamide], the IC50 worked out at 0.5 nM.
With `CCOc1nnc(-c2cc(NC(=O)c3cnnc(C(F)(F)F)c3)cnc2C)cc1N1CCOCC1` [Example 614, N-(5-(6-ethoxy-5-morpholinopyridazin-3-yl)-6-methylpyridin-3-yl)-6-(trifluoromethyl)pyridazine-4-carboxamide], the IC50 came out at 2.9 nM.
On to `Cc1ccc(NC(=O)c2cnnc(C(C)(C)C#N)c2)cc1-c1cc(N2CCOCC2)n2nccc2n1` [Example 795, 6-(2-cyanopropan-2-yl)-N-(4-methyl-3-(7-morpholinopyrazolo[1,5-a]pyrimidin-5-yl)phenyl)pyridazine-4-carboxamide], for which the IC50 was determined as 0.9 nM.
For the compound `Cc1cc(C(=O)Nc2ccc(C)c(-c3cc4[nH]cnc4c(N4CCOCC4)n3)c2)n(C)n1` [Example 817, 1,3-dimethyl-N-(4-methyl-3-(4-morpholino-1H-imidazo[4,5-c]pyridin-6-yl)phenyl)-1H-pyrazole-5-carboxamide], the IC50 is 13.2 nM.

Still in this experiment, the particulars now being: AlphaScreen, 60 min pre-incubation, reaction 1 hour at room temperature; read-out: c-Raf FL IC-50.
With `Cc1ccc(NC(=O)c2ccnc(S(C)(=O)=O)c2)cc1-c1cnc(OC(C)C)c(N2CCOCC2)c1` [Example 950, N-(3-(6-isopropoxy-5-morpholinopyridin-3-yl)-4-methylphenyl)-2-(methylsulfonyl)isonicotinamide], the IC50 turned out to be 0.21 nM.
For `Cc1ccc(NC(=O)c2ccnc(C(F)F)c2)cc1-c1cc(N2CCOCC2)c2nccn2c1` [Example 850, 2-(difluoromethyl)-N-(4-methyl-3-(8-morpholinoimidazo[1,2-a]pyridin-6-yl)phenyl)isonicotinamide], the IC50 was found to be 0.2 nM.
Same read-out and setting: the figure for `Cc1ccc(NC(=O)c2ccnc(C(F)F)c2)cc1-c1cc(N2CCOCC2)nc(N2CCOCC2)c1` [Example 1115, 2-(difluoromethyl)-N-(3-(2,6-dimorpholinopyridin-4-yl)-4-methylphenyl)isonicotinamide] is 0.19 nM; for `Cc1ccc(NC(=O)c2ccnc(C(F)(F)F)c2)cc1-c1c(F)c(NCCO)nc(N2CCOCC2)c1F` [Example 1014, N-(3-(3,5-difluoro-2-((2-hydroxyethyl)amino)-6-morpholinopyridin-4-yl)-4-methylphenyl)-2-(trifluoromethyl)isonicotinamide] it is 2.43 nM.
As to `Cc1ccc(NC(=O)c2ccnc(C3(C#N)CC3)c2)cc1-c1cc(N2CCOCC2)nc(N2CC(O)C2)c1` [Example 1071, 2-(1-cyanocyclopropyl)-N-(3-(2-(3-hydroxyazetidin-1-yl)-6-morpholinopyridin-4-yl)-4-methylphenyl)isonicotinamide], the IC50 amounted to 0.86 nM.
With `Cc1ncc(NC(=O)c2ccnc(C(F)(F)F)c2)cc1-c1cc(C2COCCO2)nc(N2CCOCC2)c1` (stereo not drawn) [Example 1165, N-(2′-(1,4-dioxan-2-yl)-2-methyl-6′-morpholino-[3,4′-bipyridin]-5-yl)-2-(trifluoromethyl)isonicotinamide], the IC50 stood at 0.72 nM.

Still in this experiment, the particulars now being: Table 2; AlphaScreen, 1 hour reaction; read-out: c-Raf FL IC-50.
For `Cc1ncc(NC(=O)c2ccnc(C(F)(F)F)c2)cc1-c1cnc(OC2CCOCC2)c(N2C3CCC2COC3)c1` [Example 278, N-(5′-(3-oxa-8-azabicyclo[3.2.1]octan-8-yl)-2-methyl-6′-((tetrahydro-2H-pyran-4-yl)oxy)-[3,3′-bipyridin]-5-yl)-2-(trifluoromethyl)isonicotinamide], the IC50 amounted to 2.4 nM.
As for `Cc1ccc(NC(=O)c2ccnc(C3(C#N)CC3)c2)cc1-c1cc(N2CCOCC2)c(=O)n(C)c1` [Example 357, 2-(1-cyanocyclopropyl)-N-(4-methyl-3-(1-methyl-5-morpholino-6-oxo-1,6-dihydropyridin-3-yl)phenyl)isonicotinamide], the IC50 was determined as 0.8 nM.
As for `Cc1ccc(NC(=O)c2cccc(C(F)(F)F)c2)cc1-c1cc(N2CCOCC2)nc(NS(C)(=O)=O)n1` [Example 35, N-(4-methyl-3-(2-(methylsulfonamido)-6-morpholinopyrimidin-4-yl)phenyl)-3-(trifluoromethyl)benzamide], the IC50 worked out at 0.6 nM.
With `Cc1ncc(NC(=O)c2cccc(C(F)(F)F)c2)cc1-c1cnc(OC2CNC2)c(N2CCOCC2)c1` [Example 325, N-(6′-(azetidin-3-yloxy)-2-methyl-5′-morpholino-[3,3′-bipyridin]-5-yl)-3-(trifluoromethyl)benzamide], the IC50 came to 62.3 nM.
Turning to `Cc1ccc(NC(=O)c2cccc(C(C)(C)C#N)c2)cc1-c1cc(C2CCOCC2)nc(N2CCOCC2)c1` [Example 114, 3-(2-cyanopropan-2-yl)-N-(4-methyl-3-(2-morpholino-6-(tetrahydro-2H-pyran-4-yl)pyridin-4-yl)phenyl)benzamide], the IC50 was determined as 0.3 nM.
Same read-out and setting: the value for `CCn1cc(-c2cc(NC(=O)c3ccnc(C(C)(C)C#N)c3)cnc2C)cc(N2CCOCC2)c1=O` [Example 332, 2-(2-cyanopropan-2-yl)-N-(1′-ethyl-2-methyl-5′-morpholino-6′-oxo-1′,6′-dihydro-[3,3′-bipyridin]-5-yl)isonicotinamide] was 7.5 nM; that for `Cc1ccc(NC(=O)c2cccc(S(C)(=O)=O)c2)cc1-c1ccnc(N2CCOCC2)c1` [Example 68, N-(4-methyl-3-(2-morpholinopyridin-4-yl)phenyl)-3-(methylsulfonyl)benzamide] was 0.1 nM.
In the case of `Cc1ncc(N(C)C(=O)c2cccc(C(F)(F)F)c2)cc1-c1cnc(OC2CCOCC2)c(N2CCOCC2)c1` [Example 328, N-methyl-N-(2-methyl-5′-morpholino-6′-((tetrahydro-2H-pyran-4-yl)oxy)-[3,3′-bipyridin]-5-yl)-3-(trifluoromethyl)benzamide], the IC50 is 17.3 nM.
As for `Cc1ccc(NC(=O)c2cccc(C(F)(F)F)c2)cc1-c1c[nH]c(=O)c(N2CCOCC2)n1` [Example 120, N-(4-methyl-3-(6-morpholino-5-oxo-4,5-dihydropyrazin-2-yl)phenyl)-3-(trifluoromethyl)benzamide], the IC50 was determined as 0.2 nM.
Consider `Cc1ccc(NC(=O)c2cccc(C(C)(C)S(C)(=O)=O)c2)cc1-c1cc(N2CCOCC2)c(=O)n(C)c1` [Example 351, N-(4-methyl-3-(1-methyl-5-morpholino-6-oxo-1,6-dihydropyridin-3-yl)-phenyl)-3-(2-(methylsulfonyl)propan-2-yl)benzamide], for which the IC50 came out at 3.8 nM.

The experiment is the same for the next values; noted with them: read-out: c-Raf FL IC-50.
In the case of `Cc1ccc(NC(=O)c2cccc(C(F)(F)F)c2)cc1-c1cc(N2CC3CC(C2)O3)c(=O)n(C)c1` [Example 464, N-(3-(5-(6-oxa-3-azabicyclo[3.1.1]heptan-3-yl)-1-methyl-6-oxo-1,6-dihydropyridin-3-yl)-4-methylphenyl)-3-(trifluoromethyl)benzamide], the IC50 was 2.1 nM.
